Laboratory results taken from US12528818B2, “Compositions and methods for inhibition of RAS” (Leidos Biomedical Research, Inc., priority 2021, dated 2026).

What was measured:
[1] = target: GDP-loaded KRAS4b (amino acids 1-169) G12C/C118S protein (Homo sapiens, UniProt P01116, C118S/G12C); test: Covalent cysteine 12 modification by MALDI-TOF MS, GDP-loaded KRAS G12C; format: biochemical; conditions: 15 minutes reaction time
[2] = target: GppNHp-loaded KRAS4b (amino acids 1-169) G12C/C118S protein (Homo sapiens, UniProt P01116, C118S/G12C); test: Covalent cysteine 12 modification by MALDI-TOF MS, GppNHp-loaded KRAS G12C; format: biochemical; conditions: 15 minutes reaction time
[3] = target: Avi-KRAS G12C (1-169) GppNHp/RAF1 RBD-3xFLAG (52-151) (Homo sapiens, UniProt P01116, G12C); test: biochemical; conditions: Raf1-GppNHp-KRAS G12C disruption, Raf1 RBD-KRAS G12C-GppNHp disruption assay IC50
[4] = compounds 94 or before using 5 μM proteins
[5] = compound 95 or later using 1 μM proteins

With C=CC(=O)N1CC(Nc2nc(OC[C@@H]3CCCN3C)nc3c(F)c(-c4cccc5oc(N)nc45)c(Cl)cc23)C1 [Compound 88] the “GDP-KRAS G12C percent of modification” value [1, 4] was “A (percent of modification ≥70%)”, the “GppNHp-KRAS G12C percent of modification” value [2, 4] was “C (10%≤percent of modification <50%)” and the IC50 [3] was 0.5 to 5 µM.
For C=CC(=O)N1CC[C@@H]2[C@H]1CN2c1nc(OCC23CCCN2CCC3)nc2c(F)c(-c3ccc(F)c4sc(N)nc34)c(C(F)(F)F)cc12 [Compound 166], the “GDP-KRAS G12C percent of modification” value [1, 5] was “A (percent of modification ≥70%)”, the “GppNHp-KRAS G12C percent of modification” value [2, 5] was “C (10%≤percent of modification <50%)” and the IC50 [3] was less than 0.5 µM.
With C=CC(=O)N1CC[C@H](N(C)c2nc(OC[C@@]34CCCN3C[C@H](F)C4)nc3c(F)c(-c4ccc(F)c5sc(N)nc45)c(Cl)cc23)C1 [Compound 185] the “GDP-KRAS G12C percent of modification” value [1, 5] was “C (10%≤percent of modification <50%)”, the “GppNHp-KRAS G12C percent of modification” value [2, 5] was “C (10%≤percent of modification <50%)” and the IC50 [3] was less than 0.5 µM.
C=CC(=O)N1CCN(c2ncnc3c(F)c(-c4ccc(F)c5sc(N)nc45)c(C(F)(F)F)cc23)CC1 [Compound 42, 1-(4-(7-(2-amino-7-fluorobenzo[d]thiazol-4-yl)-8-fluoro-6-(trifluoromethyl)quinazolin-4-yl)piperazin-1-yl)prop-2-en-1-one] was tested, and the “GDP-KRAS G12C percent of modification” value [1, 4] was “A (percent of modification ≥70%)”, the “GppNHp-KRAS G12C percent of modification” value [2, 4] was “D (percent of modification <10%)” and the IC50 [3] was 5 to 20 µM.
CN(C)C(=O)/C=C/C(=O)N1CC(Nc2ncnc3c(F)c(-c4ccc(F)c5sc(N)nc45)c(Cl)cc23)C1 [Compound 62] was tested, and the “GDP-KRAS G12C percent of modification” value [1, 4] was “C (10%≤percent of modification <50%)”, the “GppNHp-KRAS G12C percent of modification” value [2, 4] was “D (percent of modification <10%)” and the IC50 [3] was greater than 20 µM.
With C=CC(=O)N1CC[C@@H](N(C)c2nc(OC[C@@]34CCCN3C[C@H](F)C4)nc3c(F)c(-c4ccc(F)c5sc(N)nc45)c(C(F)(F)F)cc23)C1 (single isomer, unassigned) [Compound 240] the “GDP-KRAS G12C percent of modification” value [1, 5] was “D (percent of modification <10%)”, the “GppNHp-KRAS G12C percent of modification” value [2, 5] was “D (percent of modification <10%)” and the IC50 [3] was 0.5 to 5 µM.
In the case of C=CC(=O)N1CCN(c2nc(OC[C@@H]3C[C@@H](F)CN3C)nc3c(F)c(-c4ccc(F)c5sc(N)nc45)c(C(F)(F)F)cc23)CC1 [Compound 97], the “GDP-KRAS G12C percent of modification” value [1, 5] is reported as “A (percent of modification ≥70%)”, the “GppNHp-KRAS G12C percent of modification” value [2, 5] is reported as “C (10%≤percent of modification <50%)” and the IC50 [3] is reported as 0.5 to 5 µM.
In the case of C=CC(=O)N1CC(N(C)c2nc(OC[C@]34CCCN3C[C@H](F)C4)nc3c(F)c(-c4ccc(F)c5sc(N)nc45)c(Cl)cc23)C1 [Compound 169], the “GDP-KRAS G12C percent of modification” value [1, 5] is reported as “B (50≤percent of modification <70%)”, the “GppNHp-KRAS G12C percent of modification” value [2, 5] is reported as “C (10%≤percent of modification <50%)” and the IC50 [3] is reported as 0.5 to 5 µM.
With C=CC(=O)N1C[C@H](C)N(c2nc(OCC34CCCN3CCC4)nc3c(F)c(-c4ccc(F)c5sc(N)nc45)c(C(F)(F)F)cc23)C[C@H]1C [Compound 281] the “GDP-KRAS G12C percent of modification” value [1, 5] was “A (percent of modification ≥70%)”, the “GppNHp-KRAS G12C percent of modification” value [2, 5] was “B (50≤percent of modification <70%)” and the IC50 [3] was less than 0.5 µM.
For C=C(F)C(=O)N1CCN(c2nc(OC[C@@]34CCCN3C[C@H](F)C4)nc3c(F)c(-c4ccc(F)c5sc(N)nc45)c(C(F)(F)F)cc23)CC1 [Compound 186], the “GDP-KRAS G12C percent of modification” value [1, 5] was “B (50≤percent of modification <70%)”, the “GppNHp-KRAS G12C percent of modification” value [2, 5] was “D (percent of modification <10%)” and the IC50 [3] was 5 to 20 µM.
C=CC(=O)N1CCN(c2nc(OC[C@@H]3CCCN3C)nc3c(F)c(-c4ccc(F)c5sc(N)nc45)ncc23)CC1 [Compound 33, (S)-1-(4-(7-(2-amino-7-fluorobenzo[d]thiazol-4-yl)-8-fluoro-2-((1-methylpyrrolidin-2-yl)methoxy)pyrido[4,3-d]pyrimidin-4-yl)piperazin-1-yl)prop-2-en-1-one] was tested, and the “GDP-KRAS G12C percent of modification” value [1, 4] was “A (percent of modification ≥70%)”, the “GppNHp-KRAS G12C percent of modification” value [2, 4] was “C (10%≤percent of modification <50%)” and the IC50 [3] was 0.5 to 5 µM.
For C=CC(=O)N1CCN(c2nc(OC[C@@]34CCCN3C[C@@H](F)C4)nc3c(F)c(-c4ccc(F)c5sc(N)nc45)c(C(F)(F)F)cc23)[C@@H](C)C1 [Compound 218], the “GDP-KRAS G12C percent of modification” value [1, 5] was “A (percent of modification ≥70%)”, the “GppNHp-KRAS G12C percent of modification” value [2, 5] was “C (10%≤percent of modification <50%)” and the IC50 [3] was less than 0.5 µM.
For C=CC(=O)NCCNc1nc(OC[C@@H]2CCCN2C)nc2c(F)c(-c3ccc(F)c4sc(N)nc34)ncc12 [Compound 48], the “GDP-KRAS G12C percent of modification” value [1, 4] was “B (50≤percent of modification <70%)”, the “GppNHp-KRAS G12C percent of modification” value [2, 4] was “D (percent of modification <10%)” and the IC50 [3] was greater than 20 µM.
In the case of C=CC(=O)N1CC[C@@H](N(C)c2nc(OCC34CCCN3CCC4)nc3c(F)c(-c4ccc(F)c5sc(N)nc45)c(C(F)(F)F)cc23)C1 (atropisomer, axis not shown) [Compound 221], the “GDP-KRAS G12C percent of modification” value [1, 5] is reported as “D (percent of modification <10%)”, the “GppNHp-KRAS G12C percent of modification” value [2, 5] is reported as “D (percent of modification <10%)” and the IC50 [3] is reported as 0.5 to 5 µM.
With C=CC(=O)N(C)C1CN(c2nc(OCC34CCCN3CCC4)nc3c(F)c(-c4ccc(F)c5sc(N)nc45)c(Cl)cc23)C1 [Compound 167] the “GDP-KRAS G12C percent of modification” value [1, 5] was “A (percent of modification ≥70%)”, the “GppNHp-KRAS G12C percent of modification” value [2, 5] was “C (10%≤percent of modification <50%)” and the IC50 [3] was 0.5 to 5 µM.
CC#CC(=O)N1CCN(c2nc(OCC34CCCN3CCC4)nc3c(F)c(-c4ccc(F)c5sc(N)nc45)c(Cl)cc23)CC1 [Compound 133] was tested, and the “GDP-KRAS G12C percent of modification” value [1, 5] was “A (percent of modification ≥70%)”, the “GppNHp-KRAS G12C percent of modification” value [2, 5] was “D (percent of modification <10%)” and the IC50 [3] was 0.5 to 5 µM.
With C=CC(=O)N1C[C@H](N(C)c2ncnc3c(F)c(-c4ccc(F)c5sc(N)nc45)c(C(F)(F)F)cc23)C[C@H]1C (atropisomer, axis not shown) [Compound 250] the “GDP-KRAS G12C percent of modification” value [1, 5] was “A (percent of modification ≥70%)”, the “GppNHp-KRAS G12C percent of modification” value [2, 5] was “D (percent of modification <10%)” and the IC50 [3] was 0.5 to 5 µM.
For C=CC(=O)N1CC(Nc2nc(OC[C@@]34CCCN3C[C@H](F)C4)nc3c(F)c(-c4ccc(F)c5sc(N)nc45)c(C(F)(F)F)cc23)C1 [Compound 270], the “GDP-KRAS G12C percent of modification” value [1, 5] was “A (percent of modification ≥70%)”, the “GppNHp-KRAS G12C percent of modification” value [2, 5] was “A (percent of modification ≥70%)” and the IC50 [3] was less than 0.5 µM.
For C=CC(=O)N1CC(N(c2nc(OCC34CCCN3CCC4)nc3c(F)c(-c4ccc(F)c5sc(N)nc45)c(C(F)(F)F)cc23)C2CC2)C1 [Compound 152], the “GDP-KRAS G12C percent of modification” value [1, 5] was “A (percent of modification ≥70%)”, the “GppNHp-KRAS G12C percent of modification” value [2, 5] was “C (10%≤percent of modification <50%)” and the IC50 [3] was 0.5 to 5 µM.
In the case of CC#CC(=O)N1CCN(c2nc(OCC34CCCN3CCC4)nc3c(F)c(-c4ccc(F)c5sc(N)nc45)c(C(F)(F)F)cc23)CC1 [Compound 134], the “GDP-KRAS G12C percent of modification” value [1, 5] is reported as “B (50≤percent of modification <70%)”, the “GppNHp-KRAS G12C percent of modification” value [2, 5] is reported as “D (percent of modification <10%)” and the IC50 [3] is reported as 0.5 to 5 µM.
Nc1nc2c(-c3c(Cl)cc4c(N5CCN(C(=O)CCl)CC5)ncnc4c3O)ccc(F)c2s1 [Compound 16] was tested, and the “GDP-KRAS G12C percent of modification” value [1, 4] was “A (percent of modification ≥70%)”, the “GppNHp-KRAS G12C percent of modification” value [2, 4] was “B (50≤percent of modification <70%)” and the IC50 [3] was 5 to 20 µM.
For C=CC(=O)N1CCN(c2nc(OC[C@@H]3CCCN3C)nc3c(F)c(-c4ccc(F)c5sc(N)nc45)c(-c4cnn(C)c4)cc23)CC1 [Compound 143], the “GDP-KRAS G12C percent of modification” value [1, 5] was “A (percent of modification ≥70%)”, the “GppNHp-KRAS G12C percent of modification” value [2, 5] was “D (percent of modification <10%)” and the IC50 [3] was greater than 20 µM.
In the case of C=CC(=O)N1CCN(c2ncnc3c(F)c(-c4ccc(F)c5sc(N)nc45)cc(OC)c23)CC1 [Compound 68], the “GDP-KRAS G12C percent of modification” value [1, 4] is reported as “B (50≤percent of modification <70%)”, the “GppNHp-KRAS G12C percent of modification” value [2, 4] is reported as “D (percent of modification <10%)” and the IC50 [3] is reported as greater than 20 µM.
C=CC(=O)N1C[C@H](C)N(c2nc(OC[C@@]34CCCN3C[C@H](F)C4)nc3c(F)c(-c4ccc(F)c5sc(N)nc45)c(Cl)cc23)C[C@H]1C [Compound 266] was tested, and the “GDP-KRAS G12C percent of modification” value [1, 5] was “A (percent of modification ≥70%)”, the “GppNHp-KRAS G12C percent of modification” value [2, 5] was “C (10%≤percent of modification <50%)” and the IC50 [3] was less than 0.5 µM.
In the case of C=CC(=O)N1CCN(c2nc(OC[C@@H]3C[C@@H](F)CN3C)nc3c(F)c(-c4ccc(F)c5sc(N)nc45)c(-c4ccoc4)cc23)CC1 [Compound 99], the “GDP-KRAS G12C percent of modification” value [1, 5] is reported as “B (50≤percent of modification <70%)”, the “GppNHp-KRAS G12C percent of modification” value [2, 5] is reported as “D (percent of modification <10%)” and the IC50 [3] is reported as 0.5 to 5 µM.
C=CC(=O)N1CCC(Nc2nc(OC[C@@H]3CCCN3C)nc3c(F)c(-c4ccc(F)c5sc(N)nc45)c(Cl)cc23)C1 (stereo partly drawn) [Compound 52] was tested, and the “GDP-KRAS G12C percent of modification” value [1, 4] was “A (percent of modification ≥70%)”, the “GppNHp-KRAS G12C percent of modification” value [2, 4] was “B (50≤percent of modification <70%)” and the IC50 [3] was less than 0.5 µM.
